ChEMBL document CHEMBL1157133, “Design, synthesis, and interaction study of quinazoline-2(1H)-thione derivatives as novel potential Bcl-xL inhibitors” (J Med Chem, 2010)

Legend:
[1] = tested on: BEL-7404; test: Cytotoxicity against human Bel7404 cells after 48 hrs by MTT assay; format: functional, cell-based
[2] = tested on: OVCAR-3; test: Cytotoxicity against human OVCAR-3 cells after 48 hrs by MTT assay; format: functional, cell-based

Row | SMILES | Activity [1] | Activity [2]
1 | COc1ccccc1C1C=C(c2ccccc2)N=c2s/c(=C\c3cccc(OCC(=O)O)c3)c(=O)n21 (stereo unspecified) | Dose-dependent effect | Dose-dependent effect
2 | COc1ccccc1C1C2=C(N=c3s/c(=C\c4ccc(C(=O)O)cc4)c(=O)n31)c1ccccc1CC2 (stereo unspecified) | Dose-dependent effect | Dose-dependent effect
3 | O=C(O)COc1cccc(/C=c2\sc3n(c2=O)C(c2ccccc2)C2=C(N=3)c3ccccc3CC2)c1 (stereo unspecified) | Dose-dependent effect | Dose-dependent effect
4 | COc1ccccc1C1C2=C(N=c3s/c(=C\c4ccccc4OCC(=O)O)c(=O)n31)c1ccccc1CC2 (stereo unspecified) | Dose-dependent effect | Dose-dependent effect
5 | O=C(O)c1cccc(-c2ccc(/C=c3\sc4n(c3=O)C(c3cccc(F)c3)C3=C(N=4)/C(=C/c4cccc(F)c4)CCC3)o2)c1 (stereo unspecified) | Dose-dependent effect | Dose-dependent effect
6 | O=C(O)COc1cccc(/C=c2\sc3n(c2=O)C(c2cccc4ccccc24)C2=C(N=3)c3ccccc3CC2)c1 (stereo unspecified) | Dose-dependent effect | Dose-dependent effect
7 | COc1ccccc1C1C2=C(N=c3s/c(=C\c4ccc(OCC(=O)O)cc4)c(=O)n31)c1ccccc1CC2 (stereo unspecified) | Dose-dependent effect | Dose-dependent effect
8 | O=C(O)COc1cccc(/C=c2\sc3n(c2=O)C(c2cccc(F)c2)C2=C(N=3)/C(=C/c3cccc(F)c3)CCC2)c1 (stereo unspecified) | Dose-dependent effect | Dose-dependent effect
9 | O=C(O)c1cccc(-c2ccc(/C=c3\sc4n(c3=O)C(c3ccccc3F)C3=C(N=4)c4ccccc4CC3)o2)c1 (stereo unspecified) | Dose-dependent effect | Dose-dependent effect
10 | COc1ccccc1C1C2=C(N=c3s/c(=C\c4ccc(-c5cccc(C(=O)O)c5)o4)c(=O)n31)c1ccccc1CC2 (stereo unspecified) | Dose-dependent effect | Dose-dependent effect
11 | CCOC(=O)COc1cccc(/C=c2\sc3n(c2=O)C(c2ccccc2OC)C2=C(N=3)c3ccccc3CC2)c1 (stereo unspecified) | Dose-dependent effect | Dose-dependent effect
12 | COc1ccccc1C1C2=C(N=c3s/c(=C\c4ccc(-c5cccc(C(=O)O)c5)cc4)c(=O)n31)c1ccccc1CC2 (stereo unspecified) | Dose-dependent effect | Dose-dependent effect
13 | O=C(O)c1cccc(-c2ccc(/C=c3\sc4n(c3=O)C(c3ccccc3)C3=C(N=4)c4ccccc4CC3)o2)c1 (stereo unspecified) | Dose-dependent effect | Dose-dependent effect
